{"source": "ChEMBL document CHEMBL5244202", "about": "“Structural evolution of toll-like receptor 7/8 agonists from imidazoquinolines to imidazoles” (RSC Med Chem, 2021)", "species_on_record": "Homo sapiens", "experiment": "Selectivity index, ratio of EC50 for agonist activity at TLR8 (unknown origin) to EC50 for agonist activity at TLR7 (unknown origin)"}
{"smiles": "CCCN(CCC)C(=O)C1=Cc2ccc(-c3ccc(C(=O)N4CCCC4)cc3)cc2N=C(N)C1", "values": [{"measurement": "Ratio EC50", "value": 50}]}
